Values of other authors in patent publication US5545628A, “Pharmaceutical composition containing fenofibrate” (priority 1995, dated 1996).

Settings: fenofibric acid

binding to plasma albumin: extensively bound to plasma albumin
SMILES: CC(C)(Oc1ccc(C(=O)c2ccc(Cl)cc2)cc1)C(=O)O [Fenofibric acid]
